Assays:
[1] = Metabolism by rat liver microsomes; type: in vitro ADME; settings: 0.125 mg/mL protein
[2] = Metabolism by mouse liver microsomes; type: in vitro ADME; settings: 0.125 mg/mL protein
[3] = test system: rat carageenan footpad edema; assay: Rat carageenan footpad edema model; type: in vivo; settings: rat carageenan footpad model (Example 14)
CYP2D6 = CYP2D6 (Homo sapiens, UniProt P10635); assay: P450 isoform studies (specific inhibitors, purified recombinant enzymes): O-demethylation; type: in vitro ADME
CYP3A4 = CYP3A4 (Homo sapiens, UniProt P08684); assay: P450 isoform studies (specific inhibitors, purified recombinant enzymes): side chain hydroxylation; type: in vitro ADME
[4] = Metabolism by human liver microsomes; type: in vitro ADME; settings: 0.125 mg/mL protein

Protein sequences, listed by entry. Tags and fused reporters are not part of them.
UniProt P10635, whole entry: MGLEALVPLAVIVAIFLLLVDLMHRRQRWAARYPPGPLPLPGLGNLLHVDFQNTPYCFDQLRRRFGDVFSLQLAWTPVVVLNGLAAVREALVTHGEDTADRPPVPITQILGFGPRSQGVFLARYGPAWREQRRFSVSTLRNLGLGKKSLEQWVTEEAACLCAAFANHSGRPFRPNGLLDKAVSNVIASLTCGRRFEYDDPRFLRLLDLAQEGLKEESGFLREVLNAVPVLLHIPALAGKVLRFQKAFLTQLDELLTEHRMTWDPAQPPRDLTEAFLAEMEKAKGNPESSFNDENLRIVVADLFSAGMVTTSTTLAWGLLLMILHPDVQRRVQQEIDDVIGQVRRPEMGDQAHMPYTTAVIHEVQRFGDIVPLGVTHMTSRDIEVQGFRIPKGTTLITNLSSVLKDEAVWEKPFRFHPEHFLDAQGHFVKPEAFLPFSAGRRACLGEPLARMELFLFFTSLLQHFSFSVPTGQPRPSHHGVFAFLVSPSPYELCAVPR
UniProt P08684, whole entry: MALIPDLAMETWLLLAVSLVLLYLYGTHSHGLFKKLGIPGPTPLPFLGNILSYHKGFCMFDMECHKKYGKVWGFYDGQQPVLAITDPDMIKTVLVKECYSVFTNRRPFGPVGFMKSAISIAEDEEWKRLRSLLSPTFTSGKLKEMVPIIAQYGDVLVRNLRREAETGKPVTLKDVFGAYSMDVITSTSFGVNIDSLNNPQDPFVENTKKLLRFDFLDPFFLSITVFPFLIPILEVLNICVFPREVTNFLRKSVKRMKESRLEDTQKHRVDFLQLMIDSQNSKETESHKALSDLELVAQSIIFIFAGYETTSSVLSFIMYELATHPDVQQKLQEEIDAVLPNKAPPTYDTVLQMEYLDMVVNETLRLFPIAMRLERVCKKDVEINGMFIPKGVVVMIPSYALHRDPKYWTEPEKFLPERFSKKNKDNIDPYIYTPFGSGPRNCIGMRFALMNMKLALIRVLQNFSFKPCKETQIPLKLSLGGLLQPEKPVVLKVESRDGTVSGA

COc1ccc2c(c1)c(CC(=O)Nc1cccnc1)c(C)n2C(=O)c1ccc(Cl)cc1
half-life, rat liver microsomes [1]: 75 min

COc1ccc2c(c1)c(CC(=O)NCCc1ccccc1)c(C)n2C(=O)c1ccc(Cl)cc1
half-life, mouse liver microsomes [2]: 51 min
half-life, rat liver microsomes [1]: 11 min
ED50 [3]: 0.8 mg/kg
enzyme catalyzing O-demethylation (CYP2D6): CYP2D6
enzyme catalyzing side chain hydroxylation (CYP3A4): CYP3A4
half-life, human liver microsomes [4]: 21 min
